# Data published in patent publication US20250064875A1, “PHARMACEUTICAL COMPOSITION FOR PREVENTING OR TREATING MUSCLE DISEASES” (KOSA BIO INC., priority 2021, published 2025).
# Test system: sarcopenia animal model
# Assay: Sarcopenia animal model, excised tissue weights
# Assay type: in vivo, mice
# Conditions: excised tissue weight, day 14; same model and doses
# Method: Specifically, male C57BL/6 mice (7 weeks old, Samtako Bio Korea, Korea) were acclimatized, and their body weight (g), lean body weight (g), fat mass (g), and body fat percentage (%) were measured using dual-energy X-ray absorptiometry (DXA). Considering these measurements, the mice were grouped into sets of seven, and sarcopenia was induced by administering 20 mg/kg of dexamethasone intraperitoneally once daily for 14 days (FIG. 13). Simultaneously with the dexamethasone treatment, 300 mg/kg of hot water extract of elderberry or 0.5 mg/kg of FL was administered orally once daily. A control group consisted of untreated 5 mice (normal mice) at day 0 of treatment. On days 7 and 14 of treatment, the mice were scanned using DXA to measure body weight, lean body weight, fat mass, and body fat percentage; the results are presented in FIG. 14 and Tables 2 and 3.
smiles,measurement,value
"C[C@@H]1C[C@H]2[C@@H]3CCC4=CC(=O)C=C[C@]4(C)[C@@]3(F)[C@@H](O)C[C@]2(C)[C@@]1(O)C(=O)CO [Dexamethasone, dexamethasone, reference compound]",Liver,1.514 ± 0.134 g
